The numbers were not newly measured in patent US9296750B2, “Spirolactam CGRP receptor antagonists” (Merck Sharp & Dohme Corp., priority 2012, dated 2016), which cites them from elsewhere.

Chains of the proteins cited; added tags and fusions are not shown. Residues count along the entry.
UniProt Q63118, 24-464: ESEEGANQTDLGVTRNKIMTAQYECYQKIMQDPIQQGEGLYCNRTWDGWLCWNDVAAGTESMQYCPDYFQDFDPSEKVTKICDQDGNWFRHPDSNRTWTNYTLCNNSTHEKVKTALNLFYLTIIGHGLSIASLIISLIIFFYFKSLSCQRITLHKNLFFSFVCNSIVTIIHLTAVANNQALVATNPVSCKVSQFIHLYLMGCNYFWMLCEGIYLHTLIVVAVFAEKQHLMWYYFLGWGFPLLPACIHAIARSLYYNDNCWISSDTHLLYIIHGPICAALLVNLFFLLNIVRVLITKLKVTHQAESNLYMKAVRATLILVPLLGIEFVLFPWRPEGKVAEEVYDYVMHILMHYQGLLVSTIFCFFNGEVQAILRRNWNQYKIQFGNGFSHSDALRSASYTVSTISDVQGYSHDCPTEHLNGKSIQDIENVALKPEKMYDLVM
UniProt Q9JJ74, 27-148: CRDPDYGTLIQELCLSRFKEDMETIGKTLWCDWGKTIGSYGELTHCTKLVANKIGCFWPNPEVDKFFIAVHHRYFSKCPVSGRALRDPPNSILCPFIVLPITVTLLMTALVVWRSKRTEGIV

Data set [1] concerns the target T1, CGRP receptor (Rattus norvegicus, UniProt Q63118+Q9JJ74).
T1 construct: host or cells: rat (in vivo)
The note with it: rats, prior administration; cited from earlier work.

The target in data set [2] is T1, CGRP receptor. The following applies: cited from earlier work.

On to CGRP(8-37), for which, at CGRP receptor [1], the “increase of middle meningeal artery diameter on electrical stimulation of the dura mater” value is “blocked”. In addition, the “increase of facial blood flow on trigeminal ganglion stimulation” value at CGRP receptor [2] is “inhibited”.
